Assay results taken from patent US11406643B2, “Targeting kinases for the treatment of cancer metastasis” (Board of Regents, The University of Texas System, priority 2017, dated 2022).

System: EO771 cells
Conditions: CDK5 knockdown EO771 cells compared to control EO771 cells; FIG. 9A

With CC[C@H](CO)Nc1nc(NCc2ccccc2)c2ncn(C(C)C)c2n1 [roscovitine] the “sensitivity of cells to roscovitine (cell viability curve)” value was “less sensitive”.
